Earlier results in paper PMC11238383, “A review on the cultivation, bioactive compounds, health-promoting factors and clinical trials of medicinal mushrooms Taiwanofungus camphoratus, Inonotus obliquus and Tropicoporus linteus” (Fungal Biology and Biotechnology, 2024).

Test system: Gastric cancer cachexia patients
Details: ref Liu et al. [233]

C=C1CCC[C@]2(C)C=C3OC(=O)C(C)=C3C[C@@H]12 [Atractylenolide I]
appetite, KPS, PIF positive rates versus FOE: Significantly more effective than fish-oil-enriched nutritional supplementation (FOE) at improving appetite, Karnofsky performance status (KPS) and decreasing proteolysis-inducing factor (PIF) positive rates
